What was measured:
P493-6 (myc "on") cells = test: Cell Proliferation Assay; assay type: cell-based; settings: P493-6, 72 h, read-out: Cell prolif P493 72 h IC50
Method: P493-6 (myc “on”) cells were maintained in growth media (RPMI-1640, 10% FBS, 2 mM glutamine, 100 units/ml Penicillin and 100 μg/ml streptomycin) at 37° C. with 5% CO2. For compound assay, P493-6 cells were plated in 96-well V-bottom plates on the day of compound addition in 50 μl of growth media at a cell density of 200,000 cells/ml (10,000 cells/well). Compounds were serially diluted in 100% DMSO at 200-times the final concentration. Compounds were diluted 100-fold into growth media and then 50 μl of this mixture was added to cell plates making the final concentration of DMSO 0.5%. Cells were incubated with compound for 72 hrs at 37° C. with 5% CO2 and analyzed for antiproliferative effects either by Cell Titer Glo (Promega) or FACS analysis using the Viacount (Millipore) kit on the Guava instrument.

[1] = molecular target: T1, recombinant form of Glutaminase 1 (GAC) (Homo sapiens, UniProt O94925); test: Recombinant Enzyme Assay (no preincubation); assay type: biochemical; settings: read-out: GAC Delta N2 IC50 no preinc;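 note: GDH-coupled GAC activity read as absorbance at 340 nm in kinetic mode over 15 min at 20 °C, slopes compared with a DMSO-only control, lower slope means inhibition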
T1 sequence (O94925 137-598 isoform O94925-3 limits assumed): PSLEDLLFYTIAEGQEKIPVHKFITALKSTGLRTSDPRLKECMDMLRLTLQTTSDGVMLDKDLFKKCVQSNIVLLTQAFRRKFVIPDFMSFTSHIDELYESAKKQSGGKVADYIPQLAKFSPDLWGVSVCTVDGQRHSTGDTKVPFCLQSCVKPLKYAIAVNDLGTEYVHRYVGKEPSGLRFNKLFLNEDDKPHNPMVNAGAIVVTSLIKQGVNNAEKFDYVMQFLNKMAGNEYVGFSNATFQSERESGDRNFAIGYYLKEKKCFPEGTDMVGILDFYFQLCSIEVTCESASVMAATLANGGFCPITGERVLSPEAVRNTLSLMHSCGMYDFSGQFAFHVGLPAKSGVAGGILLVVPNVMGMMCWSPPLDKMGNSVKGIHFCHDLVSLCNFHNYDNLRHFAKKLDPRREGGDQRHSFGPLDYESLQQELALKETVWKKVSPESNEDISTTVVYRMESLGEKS

[2] = molecular target: T1, recombinant form of Glutaminase 1 (GAC); test: Recombinant Enzyme Assay - Time Dependence (60 min preincubation); assay type: biochemical; settings: read-out: GAC Delta N2 IC50 60 min preinc
Method: The enzyme/compound mix was sealed with sealing foil (USA Scientific) and allowed to incubate, with mild agitation, for 60 minutes at 20° C. Enzymatic reaction was started with the addition of 50 μL of substrate solution (50 mM Tris-HCl pH 8.0, 0.2 mM EDTA, 150 mM K2HPO4, 0.1 mg/ml BSA, 1 mM DTT, 20 mM L-glutamine, 2 mM NAD^+, and 10 ppm antifoam) and read in a Molecular Devices M5 plate reader at 20° C. The plate reader was configured to read absorbance (=340 nm) in kinetic mode for 15 minutes. Data was recorded as milli-absorbance units per minute and slopes were compared to a control compound and a DMSO-only control on the same plate. Compounds with slopes less than the DMSO control were considered inhibitors and plate variability was assessed using the control compound.

Structure (SMILES)	IC50 (P493-6 (myc "on") cells) [nM]	IC50 [1] [nM]	IC50 [2] [nM]
Nc1nnc(CCSCCc2nnc(NC(=O)Cc3ccccc3)s2)s1 [Compound 17, N-(5-(2-((2-(5-amino-1,3,4-thiadiazol-2-yl)ethyl)thio)ethyl)-1,3,4-thiadiazol-2-yl)-2-phenylacetamide]	4200		
O=C(Cc1ccccc1)Nc1ccc(CCCCc2nnc(NC(=O)C(O)c3ccccc3)s2)nn1 (centres unmarked) [Compound 315]		120	17
COc1cccc(C(O)C(=O)Nc2nnc(CCCCc3ccc(NC(=O)Cc4ccccc4)nn3)s2)c1 (centres unmarked) [Compound 317]		180	7
NCc1cccc(CC(=O)Nc2nnc(CCCCc3ccc(NC(=O)Cc4ccccc4)nn3)s2)c1 [Compound 341]		130	13
O=C(Cc1ccccc1)Nc1ccc(CCCCc2nnc(NC(=O)[C@@H](O)c3ccccc3)s2)nn1 [Compound 350]		79	
O=C(Cc1ccccc1)Nc1ccc(CCCCc2nnc(NC(=O)NCc3ccccc3)s2)nn1 [Compound 352]		69	
CC(C)(C)OC(=O)NCc1cccc(CC(=O)Nc2ccc(CCCCc3nnc(NC(=O)Cc4ccccc4)s3)nn2)c1 [Compound 367]		120	2
